# According to ChEMBL document CHEMBL4251680, “Catecholic Isoquinolines from Portulaca oleracea and Their Anti-inflammatory and β2-Adrenergic Receptor Agonist Activity” (J Nat Prod, 2018):
# System: RAW264.7
# Experiment: Antiinflammatory activity in mouse RAW264.7 cells assessed as inhibition of LPS-induced nitric oxide production measured after 24 hrs by Griess assay
# Assay type: functional, cell-based
row,SMILES,inhibition
1,Oc1cc2c(cc1O)C(c1ccco1)=NCC2,Dose-dependent effect
2,O=C1CC[C@H]2c3cc(O)c(O)cc3CCN12,Dose-dependent effect
3,O=C1c2cc(O)c(O)cc2CCn2cccc21,Dose-dependent effect
4,Oc1cc2c(cc1O)CCN=C2,Dose-dependent effect
5,OCc1ccc(C2=NCCc3cc(O)c(O)cc32)o1,Dose-dependent effect
6,CC1=NCCc2cc(O)c(O)cc21,Dose-dependent effect
7,Oc1cc2c(cc1O)CC[N+](Cc1ccco1)=C2,Dose-dependent effect
8,CC(C)C[C@H]1NCCc2cc(O)c(O)cc21,Dose-dependent effect
9,C[C@@H]1NCCc2cc(O)c(O)cc21,Dose-dependent effect
10,O=C1NCCc2cc(O)c(O)cc21,Dose-dependent effect
11,CCOC(=O)CC[C@@H]1NCCc2cc(O)c(O)cc21,Dose-dependent effect
12,Oc1cc2c(cc1O)[C@@H](Cc1ccccc1)NCC2,Dose-dependent effect
13,NCCc1ccc(O)c(O)c1S(=O)(=O)O,Dose-dependent effect
